{"source": "paper PMC8876255", "about": "(Bioorganic & medicinal chemistry letters, 2021)", "tested_on": "MDA-MB-231 cells", "assay": "Cancer cell viability assay", "assay_type": "cell-based", "conditions": "relative to JMS-053, MDA-MB-231"}
{"smiles": "N=C1C(=O)NC(=O)c2cc(-c3ccc(OCCCCNC(=O)CC45CC6CC(CC(C6)C4)C5)cc3)sc21", "note": "[Compound 7a]", "values": [{"measurement": "fold increase in cytotoxicity in a breast cancer cell line", "result": "ca. 5 fold"}]}
